Laboratory results as given in PubChem BioAssay AID772 (SRMLSC, 2007).
The entries are a selection whose mix differs from that of the whole data set. The source made the active and inactive calls.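 How the source made its calls: active means growth inhibition above 90%, meaning viable cell count cut by more than 90% versus vehicle controls; inactive means growth inhibition below 90%.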

test: HT29 colon tumor cell growth inhibition, primary screen, imaging, high content imaging, 72 h, CellTiter-Glo (AID 772); conditions: HCS imaging cell count, at 10 µM, hits give high values

| SMILES | growth inhibition |
| --- | --- |
| CCN(CC)CC(O)COC(=O)C(O)(c1ccccc1)C1CCCCC1 (stereo unspecified) | inactive: 7.81% |
